Yeast mating assay B: variants of the scFv Ab-14

Reference: Li et al. 2023, doi:10.1038/s41467-023-39022-2. File: FLAb, binding data.

The target is the same throughout: PDVDLGDISGINAS, from the HR2 region of SARS-CoV-2 spike.

Parent scFv Ab-14: VH joined to VL by a 15-residue (Gly4Ser)3 linker. Changes lie in the light chain CDRs alone.
VH: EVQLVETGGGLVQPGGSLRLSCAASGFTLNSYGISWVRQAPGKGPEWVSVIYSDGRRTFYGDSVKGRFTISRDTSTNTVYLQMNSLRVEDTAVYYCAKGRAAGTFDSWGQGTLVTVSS
VL: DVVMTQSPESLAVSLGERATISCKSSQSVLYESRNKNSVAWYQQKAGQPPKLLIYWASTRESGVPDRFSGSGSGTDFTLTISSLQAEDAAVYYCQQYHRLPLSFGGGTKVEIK

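Phage display of a naive human antibody library on the peptide gave the parent. These sequences belong to a second round, designed from the earlier measurements on random variants of the parent. Their group label is 14L_En_HC (En: ensemble of fine-tuned language models; HC: hill climbing; a sequence that several methods proposed may carry one label only). The assay is AlphaSeq: two haploid yeast populations carry antibody and antigen on their surface. The frequency of each diploid, read from paired DNA barcodes, reflects how well the two displayed proteins bind. A regression on co-assayed BCL2-family reference pairs converts the normalised counts of each replicate to an apparent Kd. Mating was done six times.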

Variants are written as CDR1, CDR2 and CDR3 of the light chain (limits as in the source). Parent: KSSQSVLYESRNKNSVA, WASTRES, QQYHRLPLS. Affinities are written as log10 Kd with Kd in nM; a lower number is a better binder. A pair that was not seen in that replicate is written "ND"; this usually means weak binding, but a binder can also be missed. The parent sequence was in this pool as ten entries: three were never detected, three once, and four in most replicates, with averages from 0.34 to 2.37. The authors' rule: three or more of the six replicates give a measured affinity, fewer mean a poor binder. A sequence measured in both rounds can read differently, since the two assays cover different ranges. Three control strains display no target. For all light chain designs, 4% of the pairings with them gave a signal, with a median of 2.64 and one signal in twenty below 1.59, so weak values seen in few replicates may be background. For each scFv, signals with the empty controls are counted beside the result, with their mean in brackets.

CDR-L1	CDR-L2	CDR-L3	replicates, log10 nM	empty controls
HVSEMTFAQMKARNSVA	ENNTREA	QQYDRLPLS	ND / ND / ND / ND / ND / ND	0/18
LISGVWDYGSRNYNSVA	QTSTREK	QQYDRLPLE	2.00 / 0.97 / 0.72 / 0.45 / 0.22 / 0.85	0/18
MIAESVMYESRNKNSVA	DNSTRED	QCYDRLPLS	1.04 / 1.83 / 1.12 / 1.61 / 0.81 / 1.77	2/18 (1.97)
MFSQLVYTGSRTKNAVA	QASTREN	QQYHRLPLA	2.05 / 1.64 / 2.21 / 1.82 / 2.65 / 1.85	2/18 (3.00)
TISQSVLMTGLNRNSVA	QASERLE	QQYHRLPLS	0.75 / 0.34 / 0.28 / 0.33 / 0.39 / 0.65	2/18 (3.80)
TVSQVTGMLQHNKNSVA	DMNTRGS	QQYDRLPLS	0.36 / 0.30 / 0.00 / 0.07 / 0.30 / 0.26	1/18 (4.62)
KLSQAVNMTGKNKNSVA	ELSFREK	QQYERLPLS	ND / 1.80 / 1.72 / 2.49 / 1.75 / 2.60	0/18
TISTSMRYESSLKSAIA	NAQTRES	QQYHRLPIS	0.83 / 0.48 / 0.49 / 0.10 / 0.41 / 0.58	2/18 (3.26)
TLVQSVMGSSRTKNSVA	NAETREY	QHYHRLPLS	0.77 / 1.03 / 0.93 / 0.75 / 1.07 / 0.89	3/18 (3.21)
KIGSGTNGEKFASNSVA	QTSTREE	QQYHRLPLS	ND / ND / ND / ND / ND / 1.84	0/18
KISFNSLIESKNLNSVA	EMTTREY	QDYDRLPLS	2.38 / 2.74 / 1.53 / 3.51 / 3.45 / 4.28	0/18
KITGMWTFENRNKNSIA	EESTRED	QSYHRLPLS	0.85 / 0.87 / 0.53 / 0.65 / 0.77 / 1.16	2/18 (4.85)
HISQMVMYGSCNKYNVA	QVSTREE	QQYHRLPLS	0.81 / 0.50 / 0.38 / 0.76 / 0.47 / 0.44	2/18 (2.83)
TISQMLLMQTSHKNSVA	GEETRYD	QQYHRLPLS	0.17 / 0.25 / 0.10 / 0.23 / 0.41 / 0.03	0/18
TISQSWFIEQKNKNNVA	EMTTREN	QDYDRLPLS	1.01 / 1.54 / 2.23 / 2.44 / 1.58 / 1.74	0/18
TISQSAQQESHNKNSVA	DLNVRGS	QQYHRLPLS	0.98 / 0.35 / -0.13 / 0.39 / 0.69 / 0.42	0/18
KLYQMTGIESHAQNSLA	DANRRED	QQYHRLPLS	0.36 / 0.18 / 0.31 / 0.34 / 0.27 / 0.22	2/18 (2.41)
TISQAAQQESHNKNSVA	DLSVRGS	QQYHRLPLS	0.41 / 0.30 / 0.32 / 0.12 / 0.26 / 0.18	0/18
KLSASTRMESRNKASVA	ENSTRES	QQYFRLPLS	1.03 / 0.63 / 0.79 / 0.43 / 0.40 / 0.95	4/18 (3.51)
KLSMSMLMESKHKNSVA	ENSTREE	QHYHRLPLS	0.45 / 0.71 / 0.65 / 0.83 / 0.45 / 0.89	4/18 (2.42)
KISMTYRYESQASNNIA	EMTTREE	QSYHRLPLS	0.80 / 0.60 / 1.00 / 0.77 / 0.41 / 0.52	0/18
KLSQFYRMESRTKNSVA	DNSTRES	QDYDRLPLS	1.32 / 0.86 / 0.87 / 0.66 / 0.67 / 1.36	1/18 (3.36)
KIGSGTNGEKFQSNSVA	QTSTREE	QQYDRLPLS	0.76 / 0.95 / 0.74 / 0.28 / 0.47 / 0.22	0/18
QLGDMVHTESRNKNSIA	DMRTRES	QQYYRLPLS	-0.09 / -0.13 / -0.13 / -0.24 / -0.15 / 0.03	1/18 (2.00)
KLSQATRLESRNKASVA	ENSTRES	QQYFRLPLS	-0.13 / 0.01 / 0.01 / -0.29 / -0.26 / -0.13	3/18 (3.34)
KLGQMTAIESRNNNSVA	QMTTRES	QQYDRLPLS	1.61 / 1.41 / 1.47 / 1.27 / 1.38 / 1.38	1/18 (3.74)
ALQDVTRMESNKKNSIA	DMSNRES	QQYHRLPLS	1.05 / 0.62 / 0.49 / 0.72 / 0.66 / 0.68	0/18
TISASTYWESFNKNSVA	QTSTREE	QDYDRLPLS	2.57 / ND / 1.84 / 2.13 / 1.89 / 2.87	0/18
IISGSMLMESKHRNSVA	NAETREY	QHYDRLPLS	1.61 / 1.28 / 1.38 / 0.77 / 1.73 / 1.15	1/18 (2.64)
TLGDVTRMESNKKASIA	DMSNRAD	QQYHRLPLS	0.28 / 0.33 / -0.08 / 0.00 / 0.19 / 0.41	0/18
KLLQTVMNETRNRNNVA	HMTTRED	QQYHRLPLS	0.70 / 0.54 / 0.61 / 0.45 / 0.35 / 0.72	2/18 (2.97)
KLSVSTSWLSVNKNSVA	EMSTRES	QQYDRLPLS	0.70 / 0.64 / 0.43 / 0.14 / 0.54 / 0.73	1/18 (3.40)
KLRQSAHIESFNKNNVA	EMTTRES	QSYDRLPLS	0.45 / 0.45 / 0.77 / 0.92 / -0.17 / 1.11	0/18
TISMSMNWLTFNKNSIA	EENTRED	QQYDRLPLS	ND / ND / ND / 1.21 / ND / ND	0/18
KISMMYRYESQEKNSIA	EMSTREE	QSYHRLPLS	1.58 / 1.70 / 1.63 / 1.75 / 1.06 / 2.10	1/18 (2.87)
KISQVAMTTGKLSNSVA	NAYNRVQ	QQYHRLPLS	-0.19 / 1.81 / ND / ND / 0.09 / ND	0/18
KLSQLFYKEMRNKNNVA	EMTTRGS	QQYDRLPLS	0.44 / 0.54 / -0.01 / 0.33 / 0.02 / 0.01	1/18 (2.12)
KLSATYRFESQNKNNIA	EMTTREE	QCYHRLPLS	1.87 / 0.89 / 1.82 / 2.39 / 1.80 / 1.55	0/18
MISDLMMYGSRAKNPIA	NAETREY	QQYHRLPLE	0.74 / 0.56 / 0.73 / 0.54 / 0.47 / 0.75	2/18 (2.40)
HLADTVMQGSYYRNSVA	QESTRAD	QQYHRLPLS	0.08 / -0.24 / -0.21 / -0.47 / -0.48 / -0.01	2/18 (2.93)
QLLMVTMQGTYNRNSVA	HAETRED	QSYHRLPLS	1.56 / 3.10 / ND / 1.90 / 2.96 / 2.56	3/18 (2.88)
KLGDMVHTESRNKNNIA	DMRTRES	QQYYRLPLS	-0.13 / -0.10 / -0.11 / -0.20 / -0.13 / -0.06	2/18 (2.24)
MISDMGLHDSRISNSVA	NNSTREA	QQYDRLPLS	2.45 / 2.49 / 3.06 / 2.66 / 2.50 / ND	1/18 (2.84)
KIGAVTNGISRSKNSVA	EQSTRED	QQYNRLPLS	0.53 / 1.69 / 1.01 / 1.30 / 1.55 / 1.15	0/18
KFNQMVLTGAYVSNSVA	QMSTRVN	QQYHRLPLS	0.01 / 0.10 / 0.08 / 0.31 / 0.15 / 0.41	0/18

Excerpt, the final 3 entries:

CDR-L1	CDR-L2	CDR-L3	replicates, log10 nM	empty controls
MISDMGLHDSRISNSVA	NNSTREA	QQYDRLPLS	2.45 / 2.49 / 3.06 / 2.66 / 2.50 / ND	1/18 (2.84)
KIGAVTNGISRSKNSVA	EQSTRED	QQYNRLPLS	0.53 / 1.69 / 1.01 / 1.30 / 1.55 / 1.15	0/18
KFNQMVLTGAYVSNSVA	QMSTRVN	QQYHRLPLS	0.01 / 0.10 / 0.08 / 0.31 / 0.15 / 0.41	0/18